# According to US7977370B2, “(Hetero)aryl cyclohexane derivatives” (dated 2011):
# By UniProt entry, the sequences of proteins in these tests, tags left out.
# UniProt P35372, whole entry: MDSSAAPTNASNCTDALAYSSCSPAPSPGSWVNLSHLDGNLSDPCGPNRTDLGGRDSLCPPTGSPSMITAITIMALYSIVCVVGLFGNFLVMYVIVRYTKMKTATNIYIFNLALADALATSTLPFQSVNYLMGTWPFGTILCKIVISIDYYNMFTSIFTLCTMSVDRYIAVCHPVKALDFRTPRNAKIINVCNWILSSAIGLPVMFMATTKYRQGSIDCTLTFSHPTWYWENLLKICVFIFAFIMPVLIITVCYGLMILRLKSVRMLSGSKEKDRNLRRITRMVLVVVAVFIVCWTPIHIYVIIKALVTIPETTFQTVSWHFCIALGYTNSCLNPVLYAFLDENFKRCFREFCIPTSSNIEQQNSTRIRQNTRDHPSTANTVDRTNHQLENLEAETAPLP
# UniProt P41146, whole entry: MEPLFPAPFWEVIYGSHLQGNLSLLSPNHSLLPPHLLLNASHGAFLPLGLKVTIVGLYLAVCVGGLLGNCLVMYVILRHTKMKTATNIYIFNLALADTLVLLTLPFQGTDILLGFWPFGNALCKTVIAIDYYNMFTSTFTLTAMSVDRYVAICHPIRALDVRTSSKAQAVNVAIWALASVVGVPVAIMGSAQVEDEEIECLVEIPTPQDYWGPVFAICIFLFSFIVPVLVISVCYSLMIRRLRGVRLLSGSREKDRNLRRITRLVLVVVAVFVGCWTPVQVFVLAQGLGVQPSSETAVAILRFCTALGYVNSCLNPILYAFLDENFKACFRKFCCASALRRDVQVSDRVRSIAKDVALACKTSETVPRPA
# How the values were obtained:
# human μ-opiate receptor = human μ-opiate receptor (Homo sapiens, UniProt P35372); conditions: for Ki: read-out: Ki (μ) Mean, Table 1; for % Inhibition (μ) [1 μM]: test concentration 1 μM
# ORL 1-receptor = ORL 1-receptor (Homo sapiens, UniProt P41146); test: ORL 1 receptor binding assay with 3H-nociceptin/orphanin FQ, membranes of recombinant CHO-ORL 1 cells; conditions: for Ki: read-out: Ki (ORL1) Mean, Table 1; for % Inhibition (ORL1) [1 μM]: test concentration 1 μM
Structure (SMILES),Ki (human μ-opiate receptor) [nM],% Inhibition (μ) [1 μM] (human μ-opiate receptor) [%],Ki (ORL 1-receptor) [nM],% Inhibition (ORL1) [1 μM] (ORL 1-receptor) [%]
CCCCC1(N(C)C)CCC(c2[nH]c3ccccc3c2CC(=O)OC)(c2[nH]c3ccccc3c2CC(=O)OC)CC1,0.9,103,27,96
CCCCC1(N(C)C)CCC(c2[nH]c3ccccc3c2CCO)(c2[nH]c3ccccc3c2CCO)CC1,0.5,96,1,98
